# Biological target: T1, estrogen receptor ERβ (Homo sapiens, UniProt Q92731)
# Sequences of proteins named here, by UniProt entry; tags and fusion partners are left off.
# UniProt Q92731, whole entry: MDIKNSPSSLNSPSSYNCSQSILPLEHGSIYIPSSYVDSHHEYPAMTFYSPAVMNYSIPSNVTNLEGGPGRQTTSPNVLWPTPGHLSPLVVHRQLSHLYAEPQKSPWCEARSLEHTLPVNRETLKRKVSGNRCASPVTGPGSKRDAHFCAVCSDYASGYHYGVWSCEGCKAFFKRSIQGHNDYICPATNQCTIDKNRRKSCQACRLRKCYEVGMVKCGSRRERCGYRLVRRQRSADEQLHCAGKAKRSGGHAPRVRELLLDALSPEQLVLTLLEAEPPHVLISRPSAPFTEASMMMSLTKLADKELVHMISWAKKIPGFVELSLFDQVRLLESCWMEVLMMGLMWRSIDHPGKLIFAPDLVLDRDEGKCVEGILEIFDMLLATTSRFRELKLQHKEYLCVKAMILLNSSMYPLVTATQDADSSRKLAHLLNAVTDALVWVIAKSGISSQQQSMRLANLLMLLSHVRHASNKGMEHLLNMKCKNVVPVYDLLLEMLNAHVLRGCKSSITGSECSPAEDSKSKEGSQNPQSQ
# T1 construct: host or cells: reporter cells included in the purchased panel
# Assay: Human ERα/β reporter assay panel (ERE-luc), ERβ
# Format: cell-based
# Conditions: 100 pM, control included in the assay panel; FIG. 6
# Experimental: For evaluation of the effect of activating estrogen receptors alpha and beta (ERα/β) of the notified green tea extract, the high-temperature-processed green tea extract and theanine depending on the weight ratio of GCG:EGCG, a human ERα/β reporter assay panel (IB00421-48P, Indigo Bioscience) was treated with 20 μg/mL sample 1 (notified green tea extract), 20 μg/mL sample 2 (high-temperature-processed green tea extract), 20 μg/mL sample 3, or 20 μg/mL sample 4 of Preparation Example 1 or 2, or 1 μg/mL theanine of Preparation Example 3, for 24 hours and then the increased activity of the estrogen receptors ERα and ERβ was analyzed.
# Specifically, ERα and ERβ are overexpressed and the ERE-luc reporter gene is included in the cells included in the human ERα/β reporter assay panel. If the activity of the estrogen receptors is increased upon treatment with the test substance, ERα and ERβ are bound to ERE and the expression of luciferase is induced. Therefore, the activity of ERα and ERβ can be determined by measuring light emission from the cells.
smiles,measurement,value
C[C@]12CC[C@@H]3c4ccc(O)cc4CC[C@H]3[C@@H]1CC[C@@H]2O [17b-estradiol],activity of estrogen receptor ERβ (luciferase activity),increased the activity

# From US20210275621A1, “COMPOSITION FOR PREVENTING, ALLEVIATING, IMPROVING, OR TREATING THE FEMALE HORMONE CONTROLLING DISORDER SYNDROME OR SYMPTOMS COMPRISING GREEN TEA EXTRACT WHICH HAS MODIFIED AMOUNTS OF INGREDIENTS” (AMOREPACIFIC CORPORATION, priority 2020, published 2021)
